Measurements published in patent US20250215101A1, “DR5 Agonist and PLK1 Inhibitor or CDK Inhibitor Combination Therapy” (Inhibrx Biosciences, Inc., priority 2022, published 2025).

How the values were obtained:
SW1353 = test: Cell viability (CellTiter-Glo) cytotoxicity assay, INBRX-109 x CDK9 or MCL-1 inhibitor matrix, 48 h, chondrosarcoma line
OUMS-27 = test: as above
H-EMC-SS = test: as above
SW620 = test: Cell viability (CellTiter-Glo) cytotoxicity assay, INBRX-109 x CDK9 or MCL-1 inhibitor matrix, 48 h, colorectal cancer line; conditions: dinaciclib + 1 nM INBRX-109

Structure (SMILES): CCc1cnn2c(NCc3ccc[n+]([O-])c3)cc(N3CCCC[C@H]3CCO)nc12 [Dinaciclib]
- Max Cytotox (SW1353; dinaciclib + 1 nM INBRX-109): 85.11%
- Max Cytotox at 25 nM (SW1353; dinaciclib only): 58.0%
- Max Cytotox (OUMS-27; dinaciclib + 1 nM INBRX-109): 86.13%
- Max Cytotox at 25 nM (OUMS-27; dinaciclib only): 15.1%
- Max Cytotox (H-EMC-SS; dinaciclib + 1 nM INBRX-109): 99.62%
- Max Cytotox at 25 nM (H-EMC-SS; dinaciclib only): 54.0%
- Max Cytotox (SW620): 99.52%
